Screens: PubChem, several laboratories
ARFGAP1 inhibitor: inhibits rat ARF GTPase activating protein 1 | Arfgap1-stimulated ARF1 GTP hydrolysis, GDP FP detection | inhibition, % at 16.5 µM | actives 0.26% (n = 360,000);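 active = inhibition above a per-plate limit, mean inhibition of low control wells plus 3 SD, cut at about 25% in these data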;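 note: 0% = DMSO wells with enzyme and 100% = wells lacking Arfgap1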
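Material: rat Arfgap1 catalytic domain, aa 1-136; also added: human ARF1(Δ1-17)-GTP substrate; compound dosing: one concentration, 16.5 µM, DMSO 1.26%; incubation: GTP hydrolysis reaction 2 h at 25 °C; measured by: Tracer-displacement fluorescence polarization with EDTA stop, 620/688 nm; evaluation: % inhibition from polarization; repeats: one replicate per compound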
Yeast UUG start: modulators of yeast start codon fidelity, primary screen, whole organism, S. cerevisiae, single point, plate reader | AID 602363, 2012 | S. cerevisiae UUG-firefly luciferase reporter, luminescence/redox ratio | activity score, % at 18.7 µM | hit rate 0.13% among 350,000;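 active = replicate mean at a twofold rise or more, about +100% in these data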;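 also: firefly luciferase made from a UUG start codon reports start codon fidelity; reporter light over untreated wells divided by growth signal over untreated wells; some hits fall short of that in this replicate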
ASAP1 inh: inhibitors of human ASAP1 ArfGAP activity; Q9ULH1; ASAP1-stimulated ARF1 GTP hydrolysis, GDP FP detection; inhibition, % at 16.5 µM; actives 0.19% (n = 360,000); in the data active = inhibition above about 25%;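 note: 0% = vehicle with enzyme and substrate and 100% = no enzyme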
MC4R ag barr: agonists of human melanocortin 4 receptor (MC4R) beta-arrestin | U2OS MC4R beta-arrestin complementation, luminescence; percent of melanotan II response, DMSO zero | P32245 | actives 0.98% (n = 360,000) | activation, % at 8.9 µM;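 active = activation above a per-plate cutoff, the mean activation of sample wells on that plate plus 3 SD, cut at about 8% in these data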
MC4R antagonist: antagonists of human melanocortin 4 receptor (MC4R) | actives 0.48% (n = 360,000) | P32245 | inhibition, % at 6.5 µM | MC4R-expressing cells, MTII-stimulated cAMP, LANCE TR-FRET;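 active = inhibition above its plate's cutoff, the mean of tested wells on that plate plus 3 SD, cut at about 29% in these data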;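 note: 0% = Melanotan II alone and 100% = Melanotan II plus saturating MCL0020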
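System: U2OS-MC4R stable cell line; Technique: Eu-cAMP/anti-cAMP TR-FRET, emission 671 nm; Repeats: single well per compound; Also added: Melanotan II; Dosing: one concentration, 6.5 µM nominal; Schedule: 30-min compound, 1-h challenge, 1-h detection, room temperature.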
NRP1-CendR mod: modulators of CendR peptide binding to human neuropilin-1. FAM-RPARPAR peptide binding to NRP-1, fluorescence polarization. inhibition, % at 25 µM. actives 0.85% (n = 360,000). AID 602438;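 active = inhibition or corrected inhibition above about 18%, plus a signal ratio from 0.5 to 1.5, limit read from the data, passing the limit was not always enough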
MC4R barr ag: human MC4R beta-arrestin agonism confirmation; shares compounds with MC4R ag barr; U2OS MC4R beta-arrestin recruitment, luminescence; scaled DMSO 0%, Melanotan II 100%; activation, % at 8.9 µM; actives 31% (n = 2,400);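 active = mean activation across replicates above the hit cutoff set in the earlier primary screen, cut at about 8% in these data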
MOR DOR agonist: activates mu-delta opioid heterodimer, MC4R agonist counter-screen | shares compounds with MC4R ag barr | U2OS PathHunter beta-arrestin, beta-gal luminescence; percent of deltorphin B response, DMSO zero | activation, % at 9.2 µM | actives 5.8% (n = 2,400) | AID 602194;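 active = mean activation across replicates exceeds the hit threshold derived in the earlier primary screen, cut at about 18% in these data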;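 note: 100% = deltorphin B at 0.9 µM final and 0% = DMSO alone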
Numbers without * were called inactive; . = no result. In the library only some 2.3% were active in any assay of this set; here they are far more common.

SMILES	ARFGAP1 inhibitor	Yeast UUG start	ASAP1 inh	MC4R ag barr	MC4R antagonist	NRP1-CendR mod	MC4R barr ag	MOR DOR agonist
COc1ccc(C(C)=O)cc1COc1cc(C)c(Cl)c(C)c1	2.1	-13.9	4.2	1.3	-7.9	-9.1	.	.
CO[C@H]1CN(C)C(=O)c2cc(NC(=O)c3ccc(F)cc3)ccc2OC[C@H](C)N(C(=O)CN(C)C)C[C@H]1C	.	24.5	.	.	.	.	.	.
C[C@H](CO)N1C[C@H](C)[C@H](CN(C)C(=O)c2cccc(F)c2)Oc2cc(-c3ccncc3)ccc2S1(=O)=O	.	-5.1	.	.	.	.	.	.
O=C(Nc1ccc2c(c1)OCO2)N[C@H]1C=C[C@H](CC(=O)N2CCN(c3ccccc3)CC2)O[C@@H]1CO	.	3.2	.	.	.	.	.	.
O=C(COC(=O)c1ccccc1O)Nc1cccc2ccccc12	0.5	-3.3	1.0	12.5*	-1.9	-2.7	0.6	2.2
O=C(COC(=O)c1cc2ccccc2cc1O)Nc1cccnc1Cl	8.2	-24.5	-1.9	3.7	8.7	14.7	.	.
COc1ccccc1NC(=O)COC(=O)c1cc2ccccc2cc1O	3.4	-5.9	13.7	16.8*	5.0	0.5	1.2	6.3
COc1ccc(OC)c(N=c2oc3c(OC)cccc3cc2C(=O)NCc2ccco2)c1	-0.7	1.4	2.2	-2.2	7.5	16.5	.	.
COc1ccccc1N=c1oc2c(OC)cccc2cc1C(=O)NCc1ccco1	.	-13.6	.	24.2*	0.7	-20.7	4.2	25.3*
CCOC(=O)c1sc(N(Cc2ccccc2)C(=O)COC(=O)c2ccccc2O)nc1C	3.2	.	2.3	-1.1	-3.6	8.1	.	.
CCOC(=O)c1sc(N(Cc2ccccc2)C(=O)CCl)nc1C	-4.2	-16.7	-0.3	15.7*	25.3	-5.4	3.8	38.2*
Cc1sc2ncnc(SCC(=O)c3cccs3)c2c1C	-1.9	-13.2	5.2	42.5*	-0.9	-16.3	4.3	6.2
O=C(CSc1nnc(-c2cccs2)o1)N1CCCCC1	-2.7	-7.7	-4.4	0.5	14.1	2.1	.	.
O=C(CSc1nnc(-c2cccs2)o1)N1CCOCC1	-1.7	.	19.7	17.9*	2.7	13.3	-1.1	1.4
Cc1noc(C)c1NC(=O)N(C)C[C@@H]1Oc2ccc(NC(=O)Nc3ccc(C(F)(F)F)cc3)cc2C(=O)N([C@H](C)CO)C[C@H]1C	.	-5.4	.	.	.	.	.	.
C[C@H](CO)N1C[C@H](C)[C@@H](CN(C)S(=O)(=O)c2ccccc2F)Oc2ncc(C#Cc3ccncc3)cc2C1=O	.	-4.3	.	.	.	.	.	.
CC(C)CNC(=O)c1oc2ccccc2c1COc1ccccc1	-3.6	-9.0	0.5	-1.2	19.0	9.0	.	.
O=C(Nc1ccccc1OC(F)F)c1oc2ccccc2c1COc1ccccc1	-5.5	-8.6	6.7	27.0*	-19.8	4.5	13.8*	3.9
COc1cccc(CN(Cc2ccccc2F)S(=O)(=O)c2ccc(S(=O)(=O)NCc3ccccc3)cc2)c1	7.7	.	12.2	21.6*	-0.9	-4.9	8.0	9.5
O=C(C[C@@H]1CC[C@@H](NC(=O)NC2CCCC2)[C@@H](CO)O1)NCc1ccc(F)cc1	.	-13.1	.	.	.	.	.	.
CO[C@@H]1CN(C)C(=O)c2cc(NC(=O)Nc3ccccc3)ccc2OC[C@@H](C)N(C(=O)CN(C)C)C[C@H]1C	.	-2.8	.	.	.	.	.	.
OC(CNCCc1ccc(C(F)(F)F)cc1)COC(c1ccccc1)c1ccccc1 (stereo unspecified)	-2.4	-12.3	6.6	36.0*	5.7	9.5	21.7*	13.4
COc1ccc(C(OCC(O)CNCCc2ccc(S(N)(=O)=O)cc2)c2ccc(OC)cc2)cc1 (stereo unspecified)	17.5	3.8	8.8	-0.2	5.0	-5.1	.	.
CCOc1ccccc1-c1nc(-c2ccc(NC(=O)c3ccc(Br)o3)cc2)no1	9.0	.	21.0	.	.	.	.	.
CCOc1ccccc1-c1nc(-c2ccc(NC(=O)Cc3ccc(OC)cc3)cc2)no1	-2.2	-3.4	5.0	21.1*	-12.6	3.7	25.0*	20.6*

Next part, starting with the last 5 of the part before.
SMILES	ARFGAP1 inhibitor	Yeast UUG start	ASAP1 inh	MC4R ag barr	MC4R antagonist	NRP1-CendR mod	MC4R barr ag	MOR DOR agonist
CO[C@@H]1CN(C)C(=O)c2cc(NC(=O)Nc3ccccc3)ccc2OC[C@@H](C)N(C(=O)CN(C)C)C[C@H]1C	.	-2.8	.	.	.	.	.	.
OC(CNCCc1ccc(C(F)(F)F)cc1)COC(c1ccccc1)c1ccccc1 (stereo unspecified)	-2.4	-12.3	6.6	36.0*	5.7	9.5	21.7*	13.4
COc1ccc(C(OCC(O)CNCCc2ccc(S(N)(=O)=O)cc2)c2ccc(OC)cc2)cc1 (stereo unspecified)	17.5	3.8	8.8	-0.2	5.0	-5.1	.	.
CCOc1ccccc1-c1nc(-c2ccc(NC(=O)c3ccc(Br)o3)cc2)no1	9.0	.	21.0	.	.	.	.	.
CCOc1ccccc1-c1nc(-c2ccc(NC(=O)Cc3ccc(OC)cc3)cc2)no1	-2.2	-3.4	5.0	21.1*	-12.6	3.7	25.0*	20.6*
CC(=O)N(C)C[C@@H]1Oc2cc(C#Cc3cccnc3)ccc2S(=O)(=O)N([C@H](C)CO)C[C@H]1C	.	28.7	.	.	.	.	.	.
C[C@@H]1CCCCO[C@@H](CN(C)Cc2ccc3c(c2)OCO3)[C@@H](C)CN([C@@H](C)CO)C(=O)c2cc(NC(=O)Nc3cccc4ccccc34)ccc2O1	.	6.3	.	.	.	.	.	.
COc1ccc(-c2[nH]c(-c3ccc4c(c3)OCO4)nc2-c2ccccc2)cc1	8.2	-10.7	12.4	0.1	-1.6	17.5	.	.
COc1cc(-c2nc(-c3ccccc3)c(-c3ccc(F)cc3)[nH]2)cc2c1OCO2	-8.5	-3.3	4.5	12.4*	12.5	-5.3	3.4	9.6
C[C@H]1CN([C@@H](C)CO)C(=O)c2cc(C#CCN(C)C)cnc2O[C@H]1CN(C)S(C)(=O)=O	.	5.7	.	.	.	.	.	.
Cc1cccc(OCc2nnc(SCC(=O)Nc3sc(C)c(C)c3C#N)n2C)c1	-0.8	-15.9	-3.0	16.6*	-1.6	5.2	1.9	5.8
Cc1ccc(OCc2nnc(SCC(=O)Nc3sc(C)c(C)c3C#N)n2C)cc1	14.8	-22.9	-4.2	17.5*	-1.1	0.0	2.5	4.7
Cc1ccc(OCc2nnc(SCC(=O)NC3CCCCC3)n2C)cc1	5.3	-16.4	-9.7	-1.0	-2.9	7.5	.	.
CCN(CC)CC(=O)Nc1cccc2c1C(=O)c1ccccc1C2=O	-4.5	0.0	-2.6	10.6*	24.1	-7.8	2.1	6.3
CO[C@@H]1CN(C)C(=O)c2ccc(NC(=O)c3ccccc3F)cc2OC[C@H](C)N(CC2CC2)C[C@@H]1C	.	0.5	.	.	.	.	.	.
C/C=C/c1ccc2c(c1)O[C@@H](CN(C)C(=O)NC(C)C)[C@@H](C)CN([C@@H](C)CO)S2(=O)=O	.	7.9	.	.	.	.	.	.
COc1cccc(-c2cnc3c(NC(C)=O)cc(-c4ccc(S(C)(=O)=O)cc4)cn23)c1	7.0	5.5	8.5	10.7*	11.1	-1.3	14.2*	2.0
COc1ccc(-c2cnc3c(NC(C)=O)cc(-c4ccc(S(C)(=O)=O)cc4)cn23)cc1OC	-10.8	2.6	2.2	10.8*	5.2	-3.6	9.8*	2.9
COc1ccc(-c2cnc3c(NC=O)cc(-c4ccc(S(C)(=O)=O)cc4)cn23)cc1OC	9.3	-2.1	23.9	4.7	-16.9	-0.4	.	.
COc1ccc(C2CC(c3ccc(Cl)cc3Cl)Nc3nc(N)nn32)cc1 (stereo unspecified)	-9.1	-6.1	-2.5	6.6	13.7	1.5	.	.
